US4921808A, “Method for determining follicle stimulating hormone” (The Albany Medical College of Union University, priority 1986, dated 1990)

Test system: Calf Testes FSH-Receptors
Test: Radio-ligand-receptor assay (RRA): binding of [125I]-hFSH to "crude" calf testes membranes
Conditions: calf testes plasma membrane extract with about 5 to about 25 fmol receptors per mg membrane wet weight, standard conditions of Example 8

## electrophoretically purified, radiolabeled FSH: radio-iodinated FSH purified by 7.5% polyacrylamide gel electrophoresis and eluted from gel slices (Example 5)
  ratio of specific binding to nonspecific binding: at least 5
